Data on 73 compounds can be found in PubChem BioAssay AID493131 (Broad Institute, 2011).

By UniProt entry, the sequences of proteins in these tests, tags left out.
UniProt P13346, whole entry: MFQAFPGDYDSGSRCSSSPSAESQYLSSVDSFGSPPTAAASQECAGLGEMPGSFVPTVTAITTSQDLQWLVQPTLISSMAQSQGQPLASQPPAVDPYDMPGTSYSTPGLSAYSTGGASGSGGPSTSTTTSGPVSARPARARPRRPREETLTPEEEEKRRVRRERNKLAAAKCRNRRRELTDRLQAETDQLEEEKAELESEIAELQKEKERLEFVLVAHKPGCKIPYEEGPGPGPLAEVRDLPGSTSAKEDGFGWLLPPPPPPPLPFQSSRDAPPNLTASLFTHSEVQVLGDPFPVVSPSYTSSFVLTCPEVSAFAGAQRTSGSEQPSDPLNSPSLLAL

The list shows a part of the results, in another mix than the full data. Calls of active or inactive are those of the source.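 How the source made its calls: active means mean activation above about 17%, with every replicate also reaching it (limit read from the data, passing the limit was not always enough); inconclusive means only one of the two conditions met; inactive means the rest.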

The experiment concerns the target Protein FosB (Mus musculus) (UniProt P13346). As to the kind of experiment: enhancers of mouse delta FosB DNA binding – biochemical, fluorescence polarization, TAMRA-CDK5 oligo, single point, primary screen (AID 493131).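 Further: fluorescence polarization rise as delta FosB binds a TAMRA Cdk5 AP-1 oligo.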 The settings on record: purified delta FosB, at 25 µM, hits give high values, percent of positive-control signal above neutral wells. For orientation: Polarisation of emitted light reports the rotation of a fluorescent probe.
Turning to `CCC(CO)(C(=O)OC1CN2CCC1CC2)c1ccccc1` (stereo not drawn), the activation was inactive: -0.702%.
Then `COc1cccc(C(=O)N(c2cc(C)cc(C)c2)C2CCN(C(=O)OC(C)(C)C)CC2)c1`, with inactive: -14.7%.
The same measure for `COc1cc(OC)cc(C(=O)NCC2(N3CCOCC3)CCCCC2)c1`: inactive: -6.22%; for `CN1CCC(Nc2ccc(Cl)cc2)CC1`: inactive: 6.71%.
With `CCOc1ncccc1C(=O)NCC1(N2CCOCC2)CCCCC1`, the activation was inactive: -4.82%.
Take `CN1CCC(Nc2ccc(F)c(Cl)c2)CC1`: the activation is inactive: -4.1%.
The same measure for `CCCOc1ccc(C(=O)NCC2(N(C)C)CCCCC2)cc1`: inactive: -3.11%; for `CC(C)(C)OC(=O)N1CCC(Nc2ccccc2)CC1`: inactive: -10.9%.
The same measure for `O=C(O)C1(Nc2ccccc2)CCN(Cc2ccccc2)CC1`: inactive: -10.5%.
Consider `Cc1ccccc1NC1(C#N)CCN(Cc2ccccc2)CC1`, for which the activation is inactive: -0.168%.
The same measure for `CCN1CCC(Nc2cccc(F)c2)CC1`: inactive: -2.55%; for `CN(C)c1ccc(C(=O)NCC2(N3CCCCC3)CCCCC2)cc1`: inactive: 1.87%; for `Cn1c(=O)[nH]cc(N(CCCl)CCCl)c1=O`: inactive: 3.79%.
The same measure for `COc1cc(OC)cc(C(=O)NCC2(N3CCCCC3)CCCCC2)c1`: inactive: -3.37%; for `CC(=O)N(c1ccccc1)C1CCNCC1`: inactive: -2.68%.
Then `Cc1ccc(NC2(C#N)CCN(Cc3ccccc3)CC2)cc1`, with inactive: 0.847%; and `Cc1ccc(C(=O)NCC2(N3CCCCC3)CCCCC2)o1`, with inactive: -3.8%.
On to `Fc1ccccc1NC1CCN(Cc2ccccc2)CC1`, for which the activation was inactive: -4.19%.
Then `c1ccc(CN2CCC(Nc3ccccc3)CC2)cc1`, with inactive: -1.13%; and `Cc1cc(N(CCCl)CCCl)ccc1C=O`, with inactive: 2.95%.
Regarding `CCCN1CCC(Nc2cc(OC)cc(OC)c2)CC1`, the activation is inactive: 1.44%.
The same measure for `CN(C)C1(CNC(=O)c2cccc(C#N)c2)CCCCC1`: inactive: 6.96%; for `CC(C)(C)OC(=O)N1CCC(N(C(=O)c2ccccc2)c2ccc(Cl)cc2)CC1`: inactive: -10.3%; for `N#Cc1ccc(C(=O)NCC2(N3CCCCC3)CCCCC2)cc1`: inactive: -3.08%.
Then `N/C(=N\O)c1c(N)no[n+]1[O-]`, with inactive: -2.76%; and `CCOC(=O)N1CCC(Nc2ccc(C)cc2)CC1`, with inactive: 0.38%.
Turning to `O=C(OC1CN2CCC1CC2)C1c2ccccc2C=Cc2ccccc21` (stereo not drawn), the activation is inactive: -0.474%.
Then `O=C(NCC1(N2CCOCC2)CCCCC1)c1cc(Br)ccc1Cl`, with inactive: -3.71%; and `COc1cc(C(=O)NCC2(N3CCOCC3)CCCCC2)cc(OC)c1C`, with inactive: 0.559%.
Then `COc1ccc(C(=O)NCC2(N3CCOCC3)CCCCC2)cc1OC`, with inactive: -3.97%; and `CN1CCC(Nc2cccc(F)c2)CC1`, with inactive: 1.55%; and `O=C(NCC1(N2CCCCC2)CCCCC1)c1cncc(Br)c1`, with inactive: 3.85%.
The same measure for `CCCOc1ccc(C(=O)NCC2(N(C)C)CCCCC2)cc1OC`: inactive: -0.885%.
As to `COc1ccc(CN(CCCl)CCCl)cc1Cl`, the activation was inactive: 4.1%.
Then `CN(C)c1cccc(C(=O)NCC2(N3CCCCC3)CCCCC2)c1`, with inactive: -13.8%; and `CC(C)c1ccc(NC2CCN(C(=O)OC(C)(C)C)CC2)cc1`, with inactive: -19.2%; and `COc1cc(OC)c(C(=O)NCC2(N(C)C)CCCCC2)cc1OC`, with inactive: 2.91%.
The same measure for `O=C(NCC1(N2CCOCC2)CCCCC1)c1cc(F)c(F)cc1Cl`: inactive: -1.4%.
Then `O=C(NCC1(N2CCCCC2)CCCCC1)c1cccc(C(F)(F)F)c1`, with inactive: -2.4%; and `CC(C)c1ccc(C(=O)NCC2(N3CCOCC3)CCCCC2)cc1`, with inactive: -9%; and `COc1ccc(NC2CCN(C(=O)OC(C)(C)C)CC2)cc1`, with inactive: 1.57%.
In the case of `CN1CCN(CCOC(=O)C(O)(c2ccccc2)c2ccccc2)CC1`, the activation was inactive: 9.98%.
Regarding `O=C(NCC1(N2CCOCC2)CCCCC1)c1cc(=O)[nH]c2ccccc12`, the activation is inactive: -0.528%.
The same measure for `COc1cc(C(=O)NCC2(N3CCCCC3)CCCCC2)ccc1OC(F)F`: inactive: -8.85%; for `O=C(NCC1(N2CCCCC2)CCCCC1)c1ccc(OC(F)F)cc1`: inactive: -6.5%.
The same measure for `O=C(NCC1(N2CCCCC2)CCCCC1)c1cccc([N+](=O)[O-])c1`: inactive: 1.67%; for `CSc1ccc(C(=O)NCC2(N3CCOCC3)CCCCC2)cc1`: inactive: 0.345%; for `CCN1CCC(Nc2ccc(Cl)cc2)CC1`: inactive: -3.08%.
Then `N#CC1(Nc2ccccc2)CCN(CCc2ccccc2)CC1`, with inactive: -6.96%; and `CCOC(=O)N1CCC(Nc2cccc(C)c2)CC1`, with inactive: 4.88%; and `COc1cc(C(=O)NCC2(N(C)C)CCCCC2)ccc1OC(F)F`, with inactive: -2.06%.
Regarding `CCOc1ccc(C)cc1CN(CCCl)CCCl`, the activation is inactive: -2.72%.
The same measure for `O=C1CCN(Cc2ccccc2)CC1`: inactive: -8.1%; for `CCCCOc1ccc(C(=O)NCC2(N3CCOCC3)CCCCC2)cc1`: inactive: -3.43%.
Then `O=P1(N(CCCl)CCCl)SCCCS1`, with inactive: 0.874%.
As for `O=C(NCC1(N2CCCCC2)CCCCC1)c1ccc(F)cc1`, the activation was inactive: -5.69%.
As for `CCOC(=O)N1CCC(Nc2ccc(F)cc2)CC1`, the activation is inactive: -3.26%.
Then `COc1ccc(NC2CCN(CCc3ccccc3)CC2)c(OC)c1`, with inactive: 0.717%; and `O=C(NCC1(N2CCOCC2)CCCCC1)c1cc2ccccc2o1`, with inactive: -5.46%; and `O=C(NCC1(N2CCCCC2)CCCCC1)c1ccc(Cl)nc1`, with inactive: -10.1%.
On to `Cc1cc(C)cc(N(C(=O)c2ccccc2)C2CCN(C(=O)OC(C)(C)C)CC2)c1`, for which the activation is inactive: -3.75%.
Then `CCOC(=O)N1CCC(Nc2ccc(OC)cc2)CC1`, with inactive: -1.17%; and `O=C(NCC1(N2CCCCC2)CCCCC1)c1ccc(Cl)s1`, with inactive: -4.11%.
Regarding `N#CC1(Nc2ccccc2)CCN(Cc2ccccc2)CC1`, the activation was inactive: -3.62%.
Then `O=C(OC1CN2CCC1CC2)C1c2ccccc2Oc2ccccc21` (stereo not drawn), with inactive: 2.09%; and `COc1ccc(Cl)cc1C(=O)NCC1(N2CCOCC2)CCCCC1`, with inactive: -7.44%.
Then `O=C(NCC1(N2CCCCC2)CCCCC1)c1ccc(=O)[nH]c1`, with inactive: -2.48%; and `O=C(NCC1(N2CCCCC2)CCCCC1)c1cccs1`, with inactive: 5.29%; and `COc1ccc(C(=O)NCC2(N3CCCCC3)CCCCC2)cc1`, with inactive: 3.47%.
Then `CC(C)(C)OC(=O)N1CCC(N(C(=O)c2ccccc2)c2ccc(F)cc2)CC1`, with inactive: -5.31%; and `COc1ccc(C(=O)NCC2(N3CCCCC3)CCCCC2)c(OC)c1OC`, with inactive: 2.61%; and `CSc1ccccc1C(=O)NCC1(N2CCCCC2)CCCCC1`, with inactive: -6.45%.
For `Cc1cccc(NC2(C#N)CCN(Cc3ccccc3)CC2)c1`, the activation was inactive: -5.51%.
